From US8568699B2, “Soft anticholinergic zwitterions” (priority 2005, dated 2013)

Sequences of proteins named here, by UniProt entry; tags and fusion partners are left off. A change or cut given only in a name is not applied to a line headed by its entry.
UniProt P11229: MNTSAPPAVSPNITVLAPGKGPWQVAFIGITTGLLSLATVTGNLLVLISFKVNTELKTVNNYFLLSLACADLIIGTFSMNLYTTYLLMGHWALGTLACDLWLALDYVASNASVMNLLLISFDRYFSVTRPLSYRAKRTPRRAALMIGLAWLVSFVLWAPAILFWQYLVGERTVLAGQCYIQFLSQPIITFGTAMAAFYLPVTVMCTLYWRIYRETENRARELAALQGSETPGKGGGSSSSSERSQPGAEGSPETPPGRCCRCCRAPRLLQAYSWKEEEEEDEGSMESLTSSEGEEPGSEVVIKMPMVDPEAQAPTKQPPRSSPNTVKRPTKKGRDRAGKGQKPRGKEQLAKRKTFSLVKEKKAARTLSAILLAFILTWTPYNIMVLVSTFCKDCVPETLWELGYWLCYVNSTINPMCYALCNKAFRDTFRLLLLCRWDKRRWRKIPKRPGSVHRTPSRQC
UniProt P20309, whole entry, looked up: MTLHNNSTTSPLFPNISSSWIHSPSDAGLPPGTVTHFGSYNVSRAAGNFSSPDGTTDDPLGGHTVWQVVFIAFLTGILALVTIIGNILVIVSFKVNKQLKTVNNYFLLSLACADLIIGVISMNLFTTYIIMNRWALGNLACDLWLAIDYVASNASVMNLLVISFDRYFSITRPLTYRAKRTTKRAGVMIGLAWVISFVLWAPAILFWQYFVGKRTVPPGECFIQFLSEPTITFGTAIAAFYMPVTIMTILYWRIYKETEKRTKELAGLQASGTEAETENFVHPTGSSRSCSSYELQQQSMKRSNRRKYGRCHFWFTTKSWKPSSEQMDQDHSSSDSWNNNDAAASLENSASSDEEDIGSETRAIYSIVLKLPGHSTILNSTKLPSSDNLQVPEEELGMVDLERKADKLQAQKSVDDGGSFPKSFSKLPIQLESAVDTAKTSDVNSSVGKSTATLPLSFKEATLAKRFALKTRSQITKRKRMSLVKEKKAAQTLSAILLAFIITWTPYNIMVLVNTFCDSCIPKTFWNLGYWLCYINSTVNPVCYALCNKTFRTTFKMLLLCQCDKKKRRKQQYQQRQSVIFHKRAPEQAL
UniProt P08172, whole entry, looked up: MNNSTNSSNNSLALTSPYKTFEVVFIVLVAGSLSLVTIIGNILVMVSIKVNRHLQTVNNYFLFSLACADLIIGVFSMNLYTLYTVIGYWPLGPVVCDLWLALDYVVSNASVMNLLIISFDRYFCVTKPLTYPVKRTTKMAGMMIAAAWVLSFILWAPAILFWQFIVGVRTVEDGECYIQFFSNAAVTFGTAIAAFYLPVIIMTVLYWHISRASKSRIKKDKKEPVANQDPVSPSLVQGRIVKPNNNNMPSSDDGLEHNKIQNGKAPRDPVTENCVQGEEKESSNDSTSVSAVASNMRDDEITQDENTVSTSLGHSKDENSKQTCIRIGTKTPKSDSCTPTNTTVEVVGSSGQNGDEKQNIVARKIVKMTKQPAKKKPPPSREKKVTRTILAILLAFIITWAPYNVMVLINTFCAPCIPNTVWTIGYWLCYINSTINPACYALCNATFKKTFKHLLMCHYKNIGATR
UniProt P08173, whole entry, looked up: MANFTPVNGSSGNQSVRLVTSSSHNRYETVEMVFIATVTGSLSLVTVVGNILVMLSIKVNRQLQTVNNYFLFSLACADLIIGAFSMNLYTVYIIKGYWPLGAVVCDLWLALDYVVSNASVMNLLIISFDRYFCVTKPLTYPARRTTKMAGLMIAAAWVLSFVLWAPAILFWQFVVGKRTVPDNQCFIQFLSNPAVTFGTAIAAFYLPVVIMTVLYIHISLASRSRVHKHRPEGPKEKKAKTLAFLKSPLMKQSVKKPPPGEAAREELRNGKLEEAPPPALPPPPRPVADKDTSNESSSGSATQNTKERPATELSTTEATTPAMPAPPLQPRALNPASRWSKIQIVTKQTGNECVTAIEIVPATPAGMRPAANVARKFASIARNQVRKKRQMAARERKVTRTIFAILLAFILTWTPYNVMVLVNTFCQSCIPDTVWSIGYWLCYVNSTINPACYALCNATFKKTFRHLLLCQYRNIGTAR

Assays:
[1] = target: cloned human muscarinic receptor subtype M1 (Homo sapiens, UniProt P11229); assay: Receptor binding, N-[3H]-methyl-scopolamine, M1; details: for M1 Hill slope: numbers in parentheses; for M1 receptor binding pKi: [3H]NMS 0.5 nM, mean ± SD of 3 experiments
[2] = target: cloned human muscarinic receptor subtype M3 (Homo sapiens, UniProt P20309); assay: Receptor binding, N-[3H]-methyl-scopolamine, M3; details: for M3 Hill slope: numbers in parentheses; for M3 receptor binding pKi: [3H]NMS 0.5 nM, mean ± SD of 3 experiments; for Selectivity M3/M2: M3 versus M2 binding affinity; for M3/M2 subtype selectivity (in words): from receptor binding pKi
[3] = target: cloned human muscarinic receptor subtype M2 (Homo sapiens, UniProt P08172); assay: Receptor binding, N-[3H]-methyl-scopolamine, M2; details: for M2 Hill slope: numbers in parentheses; for M2 receptor binding pKi: [3H]NMS 0.5 nM, mean ± SD of 3 experiments
[4] = target: cloned human muscarinic receptor subtype M4 (Homo sapiens, UniProt P08173); assay: Receptor binding, N-[3H]-methyl-scopolamine, M4; details: for M4 Hill slope: numbers in parentheses; for M4 receptor binding pKi: [3H]NMS 0.5 nM, mean ± SD of 3 experiments
[5] = tested on: rabbit eyes (pupil size); assay: Mydriatic studies, topical administration; format: in vivo; details: for AUCeff 0-168 h (area under the mydriatic response-time curve) / Rmax (maximum % change in pupil size): Table 8, topical 0.1 mL
[6] = tested on: cloned human muscarinic receptors (M1-M4 subtypes); assay: Receptor binding, values stated across subtypes M1-M4

Structure (SMILES)	M1 Hill slope ([1]; Table 6)	Selectivity M3/M2 (M3/M2 affinity ratio) ([2]; Table 6) [times]	M3 Hill slope ([2]; Table 6)	M2 Hill slope ([3]; Table 6)	M4 Hill slope ([4]; Table 6)	AUCeff 0-168 h (area under the mydriatic response-time curve) ([5]; Conc. 0.1%)	Rmax (maximum % change in pupil size) ([5]; Conc. 0.1%) [%]	other results
C[N@+]1(CC(=O)[O-])CC[C@H](OC(=O)[C@@](O)(c2ccccc2)C2CCCC2)C1	(1.13 ± 0.10)	1.0 ± 0.2	(1.03 ± 0.01)	(1.20 ± 0.02)	(0.95 ± 0.18)	–	–	–
C[N@@+]1(CC(=O)[O-])CC[C@H](OC(=O)[C@](O)(c2ccccc2)C2CCCC2)C1	(1.02 ± 0.03)	5.2 ± 0.7	(0.96 ± 0.03)	(0.80 ± 0.22)	(1.01 ± 0.06)	216 ± 29	43.90 ± 7.63	M1 receptor binding pKi ([1]; Table 6): 7.98 ± 0.01; M3 receptor binding pKi ([2]; Table 6): 8.04 ± 0.01; M2 receptor binding pKi ([3]; Table 6): 7.39 ± 0.09; M4 receptor binding pKi ([4]; Table 6): 8.15 ± 0.06
C[N@@+]1(CC(=O)[O-])CC[C@H](OC(=O)[C@@](O)(c2ccccc2)C2CCCC2)C1	–	–	–	–	–	0 ± 0	0.00 ± 0.00	AUCeff 0-168 h (area under the mydriatic response-time curve) ([5]; Conc. 0.4%): 0 ± 0; Rmax (maximum % change in pupil size) ([5]; Conc. 0.4%): 0.00 ± 0.00%
C[N@+]1(CC(=O)[O-])CC[C@@H](OC(=O)[C@@](O)(c2ccccc2)C2CCCC2)C1	(1.08 ± 0.03)	0.7 ± 0.0	(1.04 ± 0.08)	(1.01 ± 0.01)	(1.30 ± 0.28)	13 ± 15	3.87 ± 4.49	AUCeff 0-168 h (area under the mydriatic response-time curve) ([5]; Conc. 0.4%): 37 ± 3; Rmax (maximum % change in pupil size) ([5]; Conc. 0.4%): 14.88 ± 1.19%; M1 receptor binding pKi ([1]; Table 6): 6.67 ± 0.06; M3 receptor binding pKi ([2]; Table 6): 6.22 ± 0.05; M2 receptor binding pKi ([3]; Table 6): 6.35 ± 0.01; M4 receptor binding pKi ([4]; Table 6): 6.47 ± 0.01
C[N@@+]1(CC(=O)[O-])CC[C@@H](OC(=O)[C@@](O)(c2ccccc2)C2CCCC2)C1	(1.06 ± 0.05)	0.8 ± 0.1	(1.02 ± 0.12)	(1.24 ± 0.07)	(0.88 ± 0.04)	0 ± 0	0.00 ± 0.00	–
C[N@+]1(CC(=O)[O-])CC[C@@H](OC(=O)[C@](O)(c2ccccc2)C2CCCC2)C1	(1.25 ± 0.01)	–	(0.84 ± 0.17)	(0.82 ± 0.15)	(1.00 ± 0.06)	–	–	–
COC(=O)C[N+]1(C)CC[C@@H](OC(=O)[C@@](O)(c2ccccc2)C2CCCC2)C1.[Br-] (stereo partly drawn)	(0.98 ± 0.06)	0.6 ± 0.1	(1.15 ± 0.13)	(1.09 ± 0.18)	(1.11 ± 0.03)	–	–	pKi (range over M1-M4) [6]: 7.0-7.6
CCOC(=O)C[N+]1(C)CCC(OC(=O)[C@](O)(c2ccccc2)C2CCCC2)C1.[Br-] (stereo partly drawn)	(0.86 ± 0.08)	–	(1.09 ± 0.15)	(0.92 ± 0.01)	(0.89 ± 0.02)	–	–	pKi (range over M1-M4) [6]: 8.7-8.9; Recovery time (pupil of treated eye within less than 1 mm of control) ([5]; topical, 0.2% glycopyrrolate, 1.0% Compound (d) and Compound (cc)): 24 h; M1 Hill slope ([1]; Table 1): (0.86 ± 0.08); Selectivity M3/M2 ([2]; Table 1): 0.9; M3 Hill slope ([2]; Table 1): (1.09 ± 0.15); M3/M2 subtype selectivity (in words) [2]: no M3/M2 subtype selectivity; M2 Hill slope ([3]; Table 1): (0.92 ± 0.01); M4 Hill slope ([4]; Table 1): (0.89 ± 0.02)
COC(=O)C[N+]1(C)CCC(OC(=O)C(O)(c2ccccc2)C2CCCC2)C1.[Br-] (racemic)	(1.02 ± 0.12)	1.0 ± 0.0	(1.17 ± 0.18)	(1.25 ± 0.08)	(1.12 ± 0.05)	–	–	–
CCOC(=O)C[N+]1(C)CCC(OC(=O)C(O)(c2ccccc2)C2CCCC2)C1.[Br-] (racemic)	(0.91 ± 0.09)	–	(1.18 ± 0.08)	(1.23 ± 0.06)	(1.18 ± 0.09)	–	–	–
COC(=O)C[N+]1(C)CCC(OC(=O)[C@](O)(c2ccccc2)C2CCCC2)C1.[Br-] (stereo partly drawn)	(0.83 ± 0.11)	–	(0.83 ± 0.01)	(1.10 ± 0.11)	(0.83 ± 0.01)	–	–	pKi (range over M1-M4) [6]: 8.9-9.5; M1 Hill slope ([1]; Table 1): (0.83 ± 0.11); Selectivity M3/M2 ([2]; Table 1): 1.4; M3 Hill slope ([2]; Table 1): (0.83 ± 0.01); M3/M2 subtype selectivity (in words) [2]: no M3/M2 subtype selectivity; M2 Hill slope ([3]; Table 1): (1.10 ± 0.11); M4 Hill slope ([4]; Table 1): (0.83 ± 0.01)
C[N@+]1(CC(=O)[O-])CC[C@H](OC(=O)[C@](O)(c2ccccc2)C2CCCC2)C1	(1.01 ± 0.01)	–	(0.80 ± 0.21)	(1.00 ± 0.04)	(0.86 ± 0.06)	–	–	–
C[N@@+]1(CC(=O)[O-])CC[C@@H](OC(=O)[C@](O)(c2ccccc2)C2CCCC2)C1	(0.97 ± 0.13)	–	(1.06 ± 0.04)	(0.85 ± 0.21)	(0.93 ± 0.01)	–	–	–
